Screening data as filed in PubChem BioAssay.
In the library only some 3.7% were active in any assay of this set; here they are far more common.
miR-21 FLuc = miR-21 reporter, rising signal; Potency, µM (titrated, usually from 38.3 µM), without a hit: at the highest dose reporter change, positive = more light; AID 2288; 340,000 tested, under 10 active; HeLa miR-21 FLuc reporter, luciferase, 48 h; active = well fitted rising curve with a large enough effect; inconclusive = small, poorly fitted or top-dose-only effect; inactive = no such curve, though single readings can be large or run the other way;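 note: % of control where 0% means no effect; miR-21 action dims this reporter so a rising signal means less miR-21 action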
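HeLa cells endogenously expressing miR-21, stably carrying CMV-driven firefly luciferase with a downstream miR-21 binding site, 2000 cells/well. Titrations up to approximately 40 uM, 48 hours; luciferase luminescence read.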
IL2 activator = activators of IL-2; IL-2 activation reporter assay, cell-based qHTS; stimulated with anti-CD3/CD4/CD28 beads; in transgenic mouse T cells; activation, % (series mostly up to about 46 µM); 0.065% of 360,000 active; in the data active = activation above about 50%; inconclusive = mostly about 30% to 49%; also: 0% is about no effect
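Unstimulated transgenic mouse T cells; 60-min compound exposure; bead-based TCR/CD4/CD28 stimulation; 18 h culture, 37 degrees C; dual fluorescence (EGFP, DsRed) plate cytometry.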
A549 viability = A549 cytotoxicity, counter-screen for Nrf2 inhibitors; A549 ARE-Fluc cells, CellTiter-Fluor viability, 18-24 h; Potency, µM (top dose mostly 46 µM), inactives show at the top dose activity change, negative = cytotoxicity, actives largely listed as inhibitors; 0.16% of 390,000 active; AID 504648; also: potency is read from the fitted curve at half-maximal effect; % is scaled to controls: 0 for no effect and ±100 for the full control effect
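A549 ARE-Fluc cells in 5% FBS OPTI-MEM, 5000 cells/well, rested 2 h then exposed to compounds in concentration-response for 18-24 h at 37 °C. Viability by CellTiter-Fluor fluorescence (Ex 405/Em 525) after 30 min; luciferase luminescence (BugLite, 15 min, RT) read afterwards.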
Nrf2 ARE act = activates Nrf2 signaling; Potency, µM (doses to about 46.1 µM), without a hit: top-dose activation, hits mostly activators; AID 624171; 0.31% of 410,000 active; AREc32 ARE-luciferase reporter (MCF7-derived line), luminescence, 24 h; also: potency is read from the fitted curve at half-maximal effect; % of control where 0% means no effect; nearly all actives have a fitted effect of over 65% in size
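Steps: seed AREc32_Fluc cells (1000/well, 5% FBS OPTI-MEM); incubate overnight at 37 deg C; add 23 nL compound; incubate 24 hr; add Steady-Glo; hold 30 min RT; read luminescence.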
ClpP mod = qHTS Assay for Activators of ClpP; ATP-dependent Clp protease proteolytic subunit (Bacillus subtilis (strain 168)), P80244; purified B. subtilis ClpP, FRET peptide cleavage, 20 min; Potency, µM (series often up to 57.5 µM), inactives show top-dose activity change, negative = active; 1.9% of 340,000 active; AID 651965, 2013; active = well fitted falling curve with a large enough effect; inconclusive = small, poorly fitted or top-dose-only effect; inactive = no such curve, though single readings can be large or run the other way; also: potency is read from the fitted curve at half-maximal effect; the source files actives as falling curves though it sought activators and does not explain the sign; nearly all actives have a fitted effect of over 65% in size
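ClpP 10 microg/mL final, pH 8 Tris/KCl buffer with BSA, glycerol, Tween-20; compound pinned in; FRET-FV substrate; RT 20 min; Ex320/Em430; ΔFRET vs ADEP 5.8 microM, DMSO, no enzyme.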
Nrf2 block = Nrf2 pathway inhibition. Potency, µM (highest dose often 46 µM), for inactives: top-dose activity change, negative = inhibition, hits mostly inhibitors. AID 504444. A549 ARE-Fluc reporter, luciferase luminescence, 18-24 h. 2.1% of 360,000 active; also: potency is read from the fitted curve at half-maximal effect; % is scaled to controls: 0 for no effect and ±100 for the full control effect; nearly all actives have a fitted effect of over 60% in size
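In this cell-based qHTS, ARE-driven firefly luciferase in A549 cells reports Nrf2 activity; the luminescent signal after BugLite lysis is the measured value, with a prior CellTiter-Fluor read for cell health.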
An asterisk follows results filed as active; ? = inconclusive; · = no result. Unless noted, calls follow the shape of the dose curve; as a rule, active = well fitted curve in the direction sought with a large enough effect; inconclusive = small, poorly fitted or top-dose-only effect, or another doubt; inactive = no such curve, though single readings can be large; an effect the other way counts as inactive or inconclusive.

Amino acid sequences for entries named in this document (tags omitted).
ATP-dependent Clp protease proteolytic subunit (Bacillus subtilis (strain 168)), P80244, UniProt P80244, whole entry, looked up: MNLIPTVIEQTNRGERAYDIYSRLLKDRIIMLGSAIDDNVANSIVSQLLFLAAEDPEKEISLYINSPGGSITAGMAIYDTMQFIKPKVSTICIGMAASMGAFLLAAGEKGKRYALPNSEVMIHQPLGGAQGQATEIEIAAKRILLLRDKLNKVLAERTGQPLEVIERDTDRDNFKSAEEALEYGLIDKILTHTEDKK

(1) CCCCCOC(=O)Cc1c(O)c2ccccc2[nH]c1=O
(2) CC(C)COC(=O)Cc1c(O)c2ccccc2[nH]c1=O
(3) CCCCCc1c(O)c2ccccc2[nH]c1=O
(4) CN(CCOc1ccccc1)CC(=O)Nc1cc([N+](=O)[O-])ccc1Cl
(5) CCOC(=O)CSc1nc2cc(C)ccc2cc1C#N
(6) CCOc1ccc2cc(C#N)c(SCC(=O)N3CCOCC3)nc2c1
Screen / compound no. | 1 | 2 | 3 | 4 | 5 | 6
miR-21 FLuc | -5.9% | 1.1% | -7.0% | -4.5% | -51.4% | -65.0%
IL2 activator | 0.9 | -0.2 | -3.2 | 2.8 | 24.1 | -0.1
A549 viability | -3.0% | 1.9% | 9.2% | -8.5% | 5.1% | -3.7%
Nrf2 ARE act | -0.7% | -0.3% | -0.4% | -0.3% | 2.7% | 3.5%
ClpP mod | 15.8µM* | 28.2µM* | 25.1µM* | · | -20.3% | 25.1µM*
Nrf2 block | 10.4% | -1.2% | -10.7% | 16.4µM* | ? | ?

Three compounds from above with just ClpP mod, Nrf2 block and A549 viability.
nr	Structure	ClpP mod	Nrf2 block	A549 viability
2	CC(C)COC(=O)Cc1c(O)c2ccccc2[nH]c1=O	28.2µM*	-1.2%	1.9%
3	CCCCCc1c(O)c2ccccc2[nH]c1=O	25.1µM*	-10.7%	9.2%
4	CN(CCOc1ccccc1)CC(=O)Nc1cc([N+](=O)[O-])ccc1Cl	·	16.4µM*	-8.5%

The results go on:
(7) CCOC(=O)CSc1nc2cc(OC)ccc2cc1C#N
(8) CCOc1ccc2nc(SCC(=O)N3CCCCCC3)c(C#N)cc2c1
(9) CC(C)(C)C1CCc2c(sc(NC(=O)c3cccc(Cl)c3)c2C(=O)NCc2ccco2)C1 (stereo not drawn)
(10) C=C1C=C(C)n2ncc(C(=O)Nc3ccc(C)cn3)c2N1
(11) CC1(C)CC(=O)C2=C(C1)Nc1cc3c(cc1C2c1ccc(F)cc1)OCO3 (stereo not drawn)
(12) CC1(C)CC(=O)C2=C(C1)Nc1cc3c(cc1C2c1ccc2c(c1)OCO2)OCO3 (stereo not drawn)
Screen / compound no. | 7 | 8 | 9 | 10 | 11 | 12
miR-21 FLuc | -45.1% | -6.7% | 0.3% | · | 7.9% | -14.9%
IL2 activator | -0.6 | -0.8 | · | · | 0.4 | -1.4
A549 viability | -8.9% | -5.2% | 15.0% | · | -0.5% | -9.7%
Nrf2 ARE act | 0.1% | 6.7% | 0.3% | · | 0.1% | 4.9%
ClpP mod | 31.6µM* | -8.8% | -7.2% | -4.7% | 31.6µM* | 3.9%
Nrf2 block | ? | ? | 22.5% | · | -19.4% | 8.9%

(13) Cc1ccc(C2C3=C(CC(C)(C)CC3=O)Nc3onc(C)c32)cc1 (stereo not drawn)
(14) CCc1ccccc1NC(=O)Cn1ccn(Cc2ccccc2)c(=O)c1=O
(15) Cc1cc(C)c2sc(N3CCN(C(=O)C4CC4)CC3)nc2c1
(16) COc1cc(/C=C2/C=Cc3ccccc32)ccc1N(C)C
(17) COc1ccc(N=C(C)C2=C(O)c3ccccc3C2=O)cc1
(18) CC(=O)Nc1ccc(N=C(C2=C(O)c3ccccc3C2=O)c2ccccc2)cc1
Screen / compound no. | 13 | 14 | 15 | 16 | 17 | 18
miR-21 FLuc | 8.2% | ? | -52.9% | · | -26.0% | -27.7%
IL2 activator | 0.4 | · | · | · | -3.3 | 0.2
A549 viability | -7.6% | ? | 4.0% | · | -18.4% | 20.6µM*
Nrf2 ARE act | 2.5% | -1.3% | 7.2% | · | 2.5% | 10.0%
ClpP mod | 31.6µM* | 4.7% | 1.8% | 2.8% | 0.5% | 1.4%
Nrf2 block | · | ? | · | · | ? | 20.6µM*

(19) CCOc1cc(OCC)cc(C(=O)NCc2ccco2)c1
(20) CCOc1ccc(C(=O)NCc2ccco2)cc1
(21) O=C(NCc1ccco1)c1ccc(COc2ccccc2Cl)cc1
(22) COc1ccc(C(=O)Nc2ccc(Cl)cc2C(=O)NCc2ccco2)cc1OC
(23) O=C(NCc1ccco1)c1ccc(COc2cccc3ccccc23)cc1
(24) Nc1nc2[nH]c(=S)[nH]c2c(=O)[nH]1
(25) CC1CCN(c2nn3c(=O)c(C(=O)NCCc4ccc(Cl)cc4)cnc3s2)CC1
(26) Cc1ccccc1S(=O)(=O)Cc1ccc(C(=O)N2CCN(c3cccc(C)c3C)CC2)o1
(27) Cc1ccccc1S(=O)(=O)Cc1ccc(C(=O)N2CCN(c3cccc(Cl)c3)CC2)o1
Screen / compound no. | 19 | 20 | 21 | 22 | 23 | 24 | 25 | 26 | 27
miR-21 FLuc | -3.9% | -22.2% | -28.8% | 3.2% | -22.5% | · | -4.2% | 27.9% | ?
IL2 activator | -1.0 | 3.2 | -0.4 | -2.4 | 1.0 | · | · | -0.7 | ·
A549 viability | 3.1% | 0.0% | -9.1% | ? | -15.5% | -6.9% | -1.4% | ? | -22.8%
Nrf2 ARE act | 6.4% | 10.0% | 9.4% | 2.7% | 3.1% | · | 0.3% | -0.6% | -0.3%
ClpP mod | 14.1µM* | -1.2% | -1.6% | -14.8% | 11.2µM* | -8.9% | -21.9% | -0.8% | -7.1%
Nrf2 block | -20.1% | ? | ? | 20.6µM* | 16.4µM* | 2.2% | 0.0% | 10.3µM* | 18.4µM*
